Test results as given in article PMC6711705 (2019).

Key:
Test in all cases: SPR; avidity (IgG)
Fc-tagged FZD2 CRD = Fc-tagged FZD2 CRD (human, UniProt Q14332)
Fc-tagged FZD1 CRD = Fc-tagged FZD1 CRD (human, UniProt Q9UP38)
Fc-tagged FZD7 CRD = Fc-tagged FZD7 CRD (human, UniProt O75084)

B1: F^P IgG (antibody, V domains shown)
VH: EVQLVESGGGLVQPGGSLRLSCAASGFNIGSSSIHWVRQAPGKGLEWVASIYSAFASTSYADSVKGRFTISADTSKNTAYLQMNSLRAEDTAVYYCARYHFPFGFALDYWGQGTLVTVSS
VL: DIQMTQSPSSLSASVGDRVTITCRASQSVSSAVAWYQQKPGKAPKLLIYSASSLYSGVPSRFSGSRSGTDFTLTISSLQPEDFATYYCQQGVYLFTFGQGTKVEIK
Q: Which Kd (Fc-tagged FZD2 CRD) does the source give for B1 here?
A: 0.0239 nM

Q: What about the Kd (Fc-tagged FZD1 CRD) of the same binder?
A: 0.0251 nM

Q: What about the Kd (Fc-tagged FZD7 CRD) of the same binder?
A: 0.0123 nM
